{
  "source": "PubChem BioAssay AID651664",
  "about": "(NMMLSC, 2012)",
  "note": "Only a part is listed here, and it is no random draw. Calls of active or inactive are those of the source.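 The calls were made as follows: active = inhibition of granule release above a set limit; inactive = the rest.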",
  "data": [
    {"assay": "LAMP-1 surface externalization blockers in TALL-104 cells – cell-based, flow cytometry, validation set (AID 651664)", "details": "TALL-104 LAMP-1 externalization, at 15.2 µM, stronger effect = higher value, stimulated with thapsigargin and PMA", "values": [
      {"smiles": "COC(=O)c1cc2c(s1)N=C(c1ccccc1)N(C)P2(=O)N1CCOCC1", "note": "(configuration not stated)", "inhibition": "inactive: -2.3%"},
      {"smiles": "CC1(CBr)Cn2c(nc3ccccc3c2=O)S1", "note": "(configuration not stated)", "inhibition": "inactive: 0.9%"}
    ]}
  ]
}
